In patent US5773522A, “Polymer-bound camptothecin derivatives” (priority 1993, dated 1998):

System: healthy C57Bl/F mice
Assay: Toxicity (LD10, LD50) in healthy mice
Type: in vivo
Procedure: Toxicity of copolymer of N-(2-hydroxypropyl)methacryl-amide, 20-O-[N-methacryloylglycyl-L-phenylalanyl-L-leucylglycyl ] camptothecin and N-(2-hydroxypropyl) methacryloylglycinamide (A2) was evaluated in healthy C57Bl/F mice, treatment i.v. in comparison with camptothecin (CPT).

“Copolymer of N-(2-hydroxypropyl)methacrylamide, 20-O-[N-methacryloylglycyl -L-phenylalanyl-L-leucylglycyl] camptothecin and N-(2-hydroxypropyl) methacryloylglycinamide [Compound A2]” was tested, and the “toxicity (in words)” value (compared with camptothecin) was “low toxicity”, the “LD10 (dose inducing 10% of death mice)” value (i.v., healthy C57B1/F mice) was 129 mg/kg and the “LD50 (dose inducing 50% of death mice)” value (i.v., healthy C57B1/F mice) was 151 mg/kg.
